The entries are a selection whose mix differs from that of the whole data set. The source made the active and inactive calls. Rule as the data show it: active = inhibition above about 38%; inactive = the rest.
Molecular target: G-protein coupled receptor 183 (Homo sapiens) (UniProt P32249)
Assay: blockers of oxysterol-driven EBI2 arrestin signaling – cell-based, luminescence, 7a,25-OHC stimulation, uHTS, primary screen (AID 651636);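 also: enzyme fragment complementation signal reports receptor beta-arrestin coupling in cells; 0% = agonist plus DMSO wells and 100% = wells without agonist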
Settings: EBI2 beta-arrestin recruitment, 7a,25-OHC stimulated, at 5 µM, stronger effect = higher value

Protein sequences, listed by entry. Tags and fused reporters are not part of them.
UniProt P32249, whole entry, looked up: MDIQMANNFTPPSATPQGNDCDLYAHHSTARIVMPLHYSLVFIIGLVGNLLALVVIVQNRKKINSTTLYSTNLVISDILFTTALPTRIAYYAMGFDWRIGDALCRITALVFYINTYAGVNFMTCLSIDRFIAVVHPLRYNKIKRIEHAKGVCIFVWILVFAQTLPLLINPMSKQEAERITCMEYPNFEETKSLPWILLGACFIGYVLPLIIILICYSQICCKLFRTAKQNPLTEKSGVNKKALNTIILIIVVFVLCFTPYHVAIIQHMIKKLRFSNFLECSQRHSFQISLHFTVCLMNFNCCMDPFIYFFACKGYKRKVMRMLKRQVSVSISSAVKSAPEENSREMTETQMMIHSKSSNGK

Row | Compound | inhibition
1 | CC(C)=N/N=C(\N)N[N+](=O)[O-] | inactive: 0.148%
2 | CC1CCN(C(=O)Oc2c(Cl)cc(Cl)c3cccnc23)CC1 | inactive: -1.32%
3 | c1cc(-c2nn[nH]n2)ccc1-c1nn[nH]n1 | inactive: 4.13%
4 | C[N+]1=C2C=CC=CC=C2SC12C([N+](=O)[O-])=CC([N+](=O)[O-])=C[C-]2[N+](=O)[O-] (configuration not stated) | inactive: 32.9%
5 | Nc1ccc([As](=O)(O)c2ccc(N)cc2)cc1 | inactive: 9.9%
6 | CCN(/C(=N/P(=O)(N1CCOCC1)N1CCOCC1)N1CCOCC1)c1ccc(OC)cc1 | inactive: -0.304%
7 | CC(=O)N1C2C3N(C(C)=O)C1C1N(C(C)=O)C(C(N1C(C)=O)N3C(C)=O)N2C(C)=O | inactive: -7.7%
8 | O=[N+]([O-])c1cccc2n[nH]nc12 | inactive: -9.01%
9 | O=[N+]([O-])c1cc([N+](=O)[O-])c(CCNc2ccccc2)c([N+](=O)[O-])c1 | inactive: 3.3%
10 | CCc1nc2c(n1)c1c(non1O)c1c2no[n+]1[O-] | inactive: -9.91%
11 | Cc1ccc(NP(=O)(Oc2ccccc2)Oc2ccccc2)nc1 | inactive: -5.99%
12 | COc1ccc(C2=NCC(CBr)S2)cc1 (configuration not stated) | inactive: 2.95%
13 | O=[N+]([O-])C1C(O)C(O)C([N+](=O)[O-])C(O)C1O (configuration not stated) | inactive: -3.02%
14 | Nc1cc(N)c2nonc2c1[N+](=O)[O-] | inactive: -6.22%
15 | CC(C)CC(=O)NC(Sc1ccc(Cl)cc1)C(Cl)(Cl)Cl (configuration not stated) | inactive: 8.9%
16 | O=C(NC(Sc1ccncn1)C(Cl)(Cl)Cl)c1ccccc1 (configuration not stated) | inactive: -7.13%
17 | Oc1ccccc1CNc1ccccn1 | inactive: -4.72%
18 | Cc1ccc(OP(=O)(Nc2nccs2)Oc2ccc(C)cc2)cc1 | inactive: -0.497%
19 | COc1ccccc1OP(=O)(Nc1ccc(C)cn1)Oc1ccccc1OC | inactive: -2.5%
20 | CN1CCCC(OC(=O)C(c2ccccc2)c2ccccc2)C1 (configuration not stated) | inactive: -4.71%
21 | Clc1ccc(Cl)c(NC2=NCC(CBr)S2)c1 (configuration not stated) | inactive: -9.25%
22 | NC(=O)c1cc([N+](=O)[O-])cc([N+](=O)[O-])c1N | inactive: -2.05%
23 | Cc1ccc(N/C(=N/P(=O)(N2CCOCC2)N2CCOCC2)N2CCOCC2)cc1 | inactive: -2.11%
24 | CN(C(=O)Cc1ccc(Cl)c(Cl)c1)[C@H]1CCCC[C@H]1N1CCCC1 | inactive: -3.84%
25 | CCN(N=Nc1nonc1N)c1nonc1N | inactive: -14.1%
26 | Nc1cccc2ccc([As](=O)(O)O)cc12 | inactive: 3.47%

Row | Compound | inhibition
27 | CN(C(=O)Cc1ccc(Cl)c(Cl)c1)[C@H]1CCCC[C@@H]1N1CCCC1 | inactive: 1.23%
28 | Cc1ccc(NP(=O)(Oc2ccccc2F)Oc2ccccc2F)nc1 | inactive: -2.49%
29 | Cc1cc(SC(NC(=O)c2ccc(F)cc2)C(Cl)(Cl)Cl)ncn1 (configuration not stated) | inactive: -13.6%
30 | CCOP(=O)(Nc1ccccc1)OCC | inactive: -3.98%
31 | CCCC1OP(N)(=O)OCC1CC (configuration not stated) | inactive: 3.95%
32 | CC(=O)Nc1ccc([As](=O)(O)O)cc1 | inactive: -2.98%
33 | O=C(O)c1ccccc1[As](=O)(O)O | inactive: 1.5%
34 | O=P(Nc1nc2ccc(Cl)cc2s1)(c1ccccc1)c1ccccc1 | inactive: 1.35%
35 | CN(C)P(=O)(N(C)C)n1c(Nc2ccccc2)nnc1-c1ccccc1 | inactive: -0.116%
36 | O=c1c2cc([N+](=O)[O-])ccc2[nH]c2c([N+](=O)[O-])cc([N+](=O)[O-])cc12 | inactive: 38.5%
37 | CN(C)C(=O)Oc1noc2ccccc12 | inactive: 4.27%
38 | CC(NC(=O)COC(=O)C(O)(c1ccccc1)c1ccccc1)c1ccccc1 (configuration not stated) | inactive: 9.26%
39 | Cc1ccccc1OP(=O)(Nc1ccccn1)Oc1ccccc1C | inactive: -4.54%
40 | CC(=O)NC(SC(=S)N(CC(C)C)CC(C)C)C(Cl)(Cl)Cl (configuration not stated) | inactive: 7.44%
41 | Cc1ccc(OP(=O)(Nc2ccccn2)Oc2ccc(C)cc2)cc1 | inactive: -8.65%
42 | COC(=O)c1cc2c(s1)N=C(c1ccccc1)N(C)P2(=O)N1CCOCC1 (configuration not stated) | inactive: -10.3%
43 | CCC(=O)N1C2C3N(C(=O)CC)C1C1N(C(=O)CC)C(C(N1C(=O)CC)N3C(=O)CC)N2C(=O)CC | inactive: -9.24%
44 | O=C(OC1CN2CCC1CC2)c1ccccc1 (configuration not stated) | inactive: -3.93%
45 | O=P1(N(CCCl)CCCl)OCCC2CCCCN21 (configuration not stated) | inactive: -7.46%
46 | O=C(NC1CCS(=O)(=O)C1)NP(=S)(Oc1ccccc1)Oc1ccccc1 (configuration not stated) | inactive: 23.2%
47 | CCNC(=S)/N=C(\N)N[N+](=O)[O-] | inactive: 13.6%
48 | Cc1ccc(NP(=O)(Oc2cccc(C)c2)Oc2cccc(C)c2)nc1 | inactive: 2.99%
49 | c1ccc(-c2nn[nH]n2)c(-c2nn[nH]n2)c1 | inactive: 4.09%
50 | CC(=O)Nc1ccc(Oc2c([N+](=O)[O-])cc([N+](=O)[O-])cc2[N+](=O)[O-])cc1 | inactive: -5.35%
51 | CC(=O)Nc1ccc([As](=O)(O)O)c(O)c1 | inactive: -3.12%
52 | COC(=O)C1(C)COP(=O)(NCc2ccccc2)OC1 (configuration not stated) | inactive: -13.4%

Row | Compound | inhibition
53 | CC(=O)c1ccc(N2CC2c2ccncc2)cc1 (configuration not stated) | inactive: -0.702%
54 | N#C/C(=C\c1ccc(N(CCBr)CCBr)cc1)C(N)=O | inactive: -5.95%
55 | C[C@H]1OP(=O)(Oc2ccccc2)C[C@@H]2O[C@@H]21 (some centres not stated) | inactive: -0.626%
56 | C[C@@H]1C=CCP(=O)(Oc2ccccc2)O1 (some centres not stated) | inactive: -5.2%
57 | Cc1ccccc1CN(C)C(=O)COC(=O)C(O)(c1ccccc1)c1ccccc1 | inactive: -1.54%
58 | CCc1cc(O)c([N+](=O)[O-])c(C)c1[N+](=O)[O-] | inactive: -4.22%
59 | CC(C)(C)C(=O)NC(Sc1ccccc1)C(Cl)(Cl)Cl (configuration not stated) | inactive: 7.14%
60 | CCOc1ccc(C2=NCC(CBr)S2)cc1 (configuration not stated) | inactive: 1.24%
61 | O=P1(Nc2nc3ccc(Cl)cc3s2)COc2ccccc2O1 (configuration not stated) | inactive: -1.68%
62 | c1nnnn1CCn1cnnn1 | inactive: 1.69%
63 | O=P(Nc1nccs1)(c1ccccc1)c1ccccc1 | inactive: -1.27%
64 | CC(C)C(=O)NC(Sc1ccccc1)C(Cl)(Cl)Cl (configuration not stated) | inactive: -5.02%
65 | C(Cc1nn[nH]n1)Cc1nn[nH]n1 | inactive: -2.86%
66 | Nc1ccc([As](=O)(O)c2ccc([N+](=O)[O-])cc2)cc1 | inactive: -0.195%
67 | O=C(OC1CN2CCC1CC2)c1cccc(Cl)c1 (configuration not stated) | inactive: -16%
68 | CC(=O)NC(SC(=S)N(C)C)C(Cl)(Cl)Cl (configuration not stated) | inactive: 1.98%
69 | O=[N+]([O-])c1ncn(CCn2cnc([N+](=O)[O-])n2)n1 | inactive: -22.5%
70 | O=[N+]([O-])c1ccc(O)c(/C=N/Nc2ccc([N+](=O)[O-])cc2[N+](=O)[O-])c1 | inactive: -2.99%
71 | O=[As](O)(c1ccccc1)c1ccc(O)cc1 | inactive: -2.08%
72 | C[C@H]1OP(=O)(Oc2ccccc2)[C@H](O)[C@H](O)[C@H]1N=[N+]=[N-] (some centres not stated) | inactive: -9.39%
73 | O=P(Nc1nc2ccccc2s1)(c1ccccc1)c1ccccc1 | inactive: 4.6%
74 | COc1ccc(N)c([N+](=O)[O-])c1[N+](=O)[O-] | inactive: -0.754%
75 | Nc1ccc(CCCCOc2ccccc2)cc1 | inactive: 16.3%
76 | CN(C)C1(CNC(=O)c2ccc(Cl)c(S(N)(=O)=O)c2)CCCCC1 | inactive: -13.4%
77 | O=P(Nc1ccccn1)(c1ccc(Br)cc1)c1ccc(Br)cc1 | inactive: 5.11%

From PubChem BioAssay AID651636 (Sanford-Burnham Center for Chemical Genomics, 2012)
